Results from patent US6056966A, “Method and compositions for treating impotence” (Baker Norton Pharmaceuticals, Inc., priority 1998, dated 2000).
This is a selection: effects in other tests are not listed, and their absence says nothing.

How the values were obtained:
guinea pig penis = experiment: Topical application of nitrates to the penis of guinea pigs (change in penile volume); type: in vivo, male outbred Hartley guinea pigs; conditions: for Time of Peak Effect / AUC / Peak Effect (% change) / AUC, % of 1,5-PDN / Peak Effect, % of 1,5-PDN: neat; for AUC / Peak Effect (% change): guinea pig penile volume; for AUC, % of 1,5-PDN / Peak Effect, % of 1,5-PDN: relative to 1,5-PDN
[1] = Blood levels of 1,5-PDN and total radioactivity after oral or subcutaneous ^14 C-1,5-PDN in rats; conditions: 5 mg/kg
[2] = Intravenous injection of NTG vs. 1,5-pentane dinitrate in conscious rats (mean arterial blood pressure)
rat aortic rings = experiment: Vascular reactivity: relaxation of rat aortic rings precontracted with phenylephrine
[3] = Elimination, tissue distribution and absorption of ^14 C-1,5-PDN after IV, oral or dermal dosing in rats; conditions: rat, 5 mg/kg
[4] = IV, oral or dermal, up to 168 hours

Row | Compound | effect on penile volume (guinea pig penis; FIGS. 1-3, 1,5-PDN vs saline, 10% NTG solution vs 1,5-PDN, listed as 1,5-pentane dinitrate) | Time of Peak Effect (guinea pig penis) | AUC (guinea pig penis) | Peak Effect (% change) (guinea pig penis) | AUC, % of 1,5-PDN (guinea pig penis) | Peak Effect, % of 1,5-PDN (guinea pig penis) | level of 1,5-PDN in blood as % of total radioactivity levels ([1]; oral dosing, corn oil, rat) | level of 1,5-PDN in blood as % of total radioactivity levels ([1]; subcutaneous dosing, PEG 400, rat) | decrease in arterial pressure ([2]; 30 μg) | average decrease in blood pressure ([2]; higher doses (up to 2000 μg)) | vascular relaxation, potency or efficacy: 1,5-PDN vs 1,5-pentane dinitrite (rat aortic rings; FIG. 10, rat aortic rings) | vascular relaxation: NTG vs 1,5-PDN (rat aortic rings; FIG. 11, rat aortic strips) | tissue levels of radioactivity ([3]; 168 hours post-dose) | dosed radioactivity eliminated as ^14 CO2 [3, 4] | dosed radioactivity eliminated in the feces [3, 4] | dosed radioactivity eliminated in the urine [3, 4] | absorption, oral and dermal routes [3] | handling in males and females [3] | metabolism in vivo [3]
1 | O=[N+]([O-])OCCCCCO[N+](=O)[O-] | significantly more effective than the saline control in increasing penile volume | 5 min | 442 | 38.7 % change | 100% | 100% | less than 0.1% | 3.4% | 8% | 12-14% | no difference in vascular relaxation, either in potency or efficacy | no appreciable difference in the vascular relaxation | 0.1-1 ppm | approximately 60% | approximately 5% | 30% | well absorbed through both oral and dermal routes | handled in a similar manner by both males and females | rapidly and extensively metabolized in vivo, largely to CO2
2 | O=[N+]([O-])OCCCCO[N+](=O)[O-] | – | 2 min | 403 | 35.5 % change | 91% | 92% | – | – | – | – | – | – | – | – | – | – | – | – | –
3 | O=[N+]([O-])OC1CCC(O[N+](=O)[O-])CC1 (stereo not drawn) | – | 2 min | 225 | 27.9 % change | – | – | – | – | – | – | – | – | – | – | – | – | – | – | –
